From patent US10933169B2, “Bone morphogenetic protein pathway activation, compositions for ossification, and methods related thereto” (Emory University, priority 2012, dated 2021)

System: BMP-induced ALP activity in C2C12 cells
Assay: BMP-induced alkaline phosphatase (ALP) potentiation assay in C2C12 cells
Details: sub-optimal doses of BMP in the presence or absence of exogenously added noggin, relative to BMP alone control

O=C(O)CNc1ccc([As](=O)(O)O)cc1
Fold-increase of BMP-induced ALP (over BMP alone control): 2.5 fold
